Data as given in PubChem BioAssay AID871 (The Scripps Research Institute Molecular Screening Center, 2007).
Only a part is listed here, and it is no random draw. Some of these compounds have results that are not shown, active ones among them. The source made the active and inactive calls.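 The calls were made as follows: active = activation above the screen-wide mean of compound activation plus 3 SD (cut at about 130% in these data); inactive = the rest.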

Assay: IL-6 driven STAT3 reporter potentiators, primary screen, U3A cells, luciferase, luminescence, MLSCN library (AID 871);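 also: 0% = background luminescence of wells with medium and substrate only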
Conditions: IL-6 STAT3-luciferase reporter, at 5.6 µM, hits give high values, 100% = signal with IL-6 EC80 alone
Procedure, shortened: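 Test system: STAT3-luciferase reporter U3A cells; Detection: reporter luminescence signal; Times: 1 h compound pre-exposure, 6 h IL-6 stimulation, 37 °C; Benchmarks: IL-6-only high control; Also added: IL-6 stimulus at 33 ng/mL final.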

SMILES | activation (% of control)
CN(C)c1cccc(C(=O)NCC2(N(C)C)CCCCC2)c1 | inactive: 99.7%
O=C(OC1CN2CCC1CC2)C(CO)(c1ccccc1)c1ccccc1 (centres undefined) | inactive: 99.2%
COc1cccc(C(=O)NCC2(N3CCCCC3)CCCCC2)c1 | inactive: 102%
C=CCN1CCN(CCOC(=O)C(O)(c2ccccc2)c2ccccc2)CC1 | inactive: 103%
CCN1CCCC(OC(=O)C2(O)c3ccccc3C=Cc3ccccc32)C1 (centres undefined) | inactive: 112%
Cc1ccccc1C(=O)NCC1(N2CCCCC2)CCCCC1 | inactive: 104%
CN(C)C1CCCC1OC(=O)C(O)(c1ccccc1)c1ccccc1 (centres undefined) | inactive: 97.4%
CC(C)N1C(=O)CC2(CCN(CCOC(=O)C(O)(c3ccccc3)c3ccccc3)CC2)C1=O | inactive: 103%
O=C(NCC1(N2CCCCC2)CCCCC1)c1cc([N+](=O)[O-])ccc1Cl | inactive: 99.8%
